Experimental data: article PMC5155016 (Nature chemical biology, 2015)

The chains behind the UniProt entries cited, without tags or fusion partners.
UniProt O75874, whole entry R132C: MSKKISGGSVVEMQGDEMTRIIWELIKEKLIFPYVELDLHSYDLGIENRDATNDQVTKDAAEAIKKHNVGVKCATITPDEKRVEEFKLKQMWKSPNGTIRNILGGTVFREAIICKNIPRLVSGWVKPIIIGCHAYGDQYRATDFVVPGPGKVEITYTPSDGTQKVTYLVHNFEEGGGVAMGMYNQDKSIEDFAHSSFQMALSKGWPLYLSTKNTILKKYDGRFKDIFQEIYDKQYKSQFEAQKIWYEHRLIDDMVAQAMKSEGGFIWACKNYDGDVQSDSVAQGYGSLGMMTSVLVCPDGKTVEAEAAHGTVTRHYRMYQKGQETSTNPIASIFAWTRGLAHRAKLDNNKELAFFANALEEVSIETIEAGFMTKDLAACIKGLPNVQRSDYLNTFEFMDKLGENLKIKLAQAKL
UniProt O75874, whole entry partner: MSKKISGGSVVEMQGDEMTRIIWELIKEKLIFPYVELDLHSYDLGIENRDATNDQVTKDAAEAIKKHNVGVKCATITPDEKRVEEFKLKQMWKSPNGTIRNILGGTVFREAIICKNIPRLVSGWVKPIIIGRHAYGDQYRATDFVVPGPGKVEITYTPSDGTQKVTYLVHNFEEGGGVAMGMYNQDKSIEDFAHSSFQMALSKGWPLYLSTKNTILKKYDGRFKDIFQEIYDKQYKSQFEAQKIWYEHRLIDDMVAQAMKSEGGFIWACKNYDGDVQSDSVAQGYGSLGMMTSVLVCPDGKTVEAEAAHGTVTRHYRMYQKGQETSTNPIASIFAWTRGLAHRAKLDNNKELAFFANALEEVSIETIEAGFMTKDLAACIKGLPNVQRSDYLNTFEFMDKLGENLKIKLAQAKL

Molecular target: R132C IDH1 mutant HT-1080 cells (Homo sapiens, UniProt O75874, R132C)
Assay: Quantification of intracellular 2-HG in HT-1080 cells
Type: cell-based
Conditions: read-out: IDH1 IC50 HT1080 cell 2-HG

pIC50: 7.07
Compound: C[C@H](O)c1cccc(NC(=O)c2nn(Cc3ccc(F)cc3)c3c2CN(C(=O)c2ccc[nH]2)C[C@H]3C)c1 [GSK321, (7R)-1-[(4-fluorophenyl)methyl]-N-{3-[(1S)-1-hydroxyethyl]phenyl}-7-methyl-5-(1H-pyrrol-2-ylcarbonyl)-4,5,6,7-tetrahydro-1H-pyrazolo[4,3c]pyridine-3-carboxamide]

pIC50: −log10 of the molar value.
